scFv variants of Ab-14 (light chain) against a SARS-CoV-2 spike peptide

Source: Li et al. 2023 (doi:10.1038/s41467-023-39022-2), MIT Lincoln Laboratory and A-Alpha Bio; data file from the FLAb repository.

All variants were tested on one target, the spike HR2 peptide PDVDLGDISGINAS (SARS-CoV-2).

Each scFv is VH, a 15-residue (Gly4Ser)3 linker, VL, as in the parent Ab-14, and differs from it in the CDRs of the light chain only.
VH: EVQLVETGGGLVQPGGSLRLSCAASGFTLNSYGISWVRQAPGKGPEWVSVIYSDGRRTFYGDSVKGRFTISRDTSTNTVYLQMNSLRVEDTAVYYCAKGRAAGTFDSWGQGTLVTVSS
VL: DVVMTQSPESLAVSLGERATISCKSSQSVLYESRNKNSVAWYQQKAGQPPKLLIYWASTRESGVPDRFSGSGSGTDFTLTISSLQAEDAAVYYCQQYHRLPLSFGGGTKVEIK

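Phage display of a naive human antibody library on the peptide gave the parent. The variants were designed computationally from a first round of random CDR variants and then made and measured. Group labels follow the data file (Ctrl: baseline library sampled from a position-specific scoring matrix, with some repeated check sequences; En: ensemble of fine-tuned language models; GP: Gaussian process model; GPLM: also part of the Gaussian process libraries; HC: hill climbing; Gen: genetic algorithm; Gibbs: Gibbs sampling; a sequence that several methods proposed may carry one label only). AlphaSeq pools MATa yeast showing the antibodies with MATalpha yeast showing the peptide. The frequency of each diploid, read from paired DNA barcodes, reflects how well the two displayed proteins bind. A regression on co-assayed BCL2-family reference pairs converts the normalised counts of each replicate to an apparent Kd. There are six technical replicates.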

Variants are written as CDR1, CDR2 and CDR3 of the light chain (limits as in the source). Parent: KSSQSVLYESRNKNSVA, WASTRES, QQYHRLPLS.
Values are log10 of the apparent Kd in nM; lower means stronger binding.
Replicates are averaged; those with no signal do not enter the mean.
"not detected" marks a missing value. The strain was present, yet no cells mated with the target were sequenced in any replicate, which points to weak or no binding.
Values of this round are not directly comparable with the first-round values of the same sequences.

CDR-L1,CDR-L2,CDR-L3,group,"log10 Kd (nM), mean",detected,empty controls
MISQSFLIGMKAQNSVA,QTSTRES,QQYDRLPLS,En_HC,0.20,6 of 6,0 of 18
ILYDSVLTLSRNKNSVA,DNSTRES,QQYDRLPLS,En_HC,2.08,4 of 6,0 of 18
TISQITSLFSQTINNVA,EVSTREQ,QQYDRLPLS,En_Gen,0.82,6 of 6,0 of 18
KLDMSTLYESRNKNSVA,WASTRES,QQYHRLPLS,GP_HC,0.25,6 of 6,2 of 18
MISNVMNTLTRQGNNVA,DLQEREN,QQYFRLPLS,En_Gen,0.90,6 of 6,0 of 18
KISQMVRVGSTKNNSIA,EEETRAD,QQYHRLPLS,En_Gen,0.63,6 of 6,1 of 18
KVMQSNWYESRWKNSVA,NASQRES,QQYHRLPLS,GP_Gibbs,0.45,6 of 6,1 of 18
KESQSWIYESRNKNNVA,GASTRES,QQYHRLPLS,GP_HC,-0.36,6 of 6,1 of 18
TLTQSVMMESHNKNSVA,DLSTRGS,QQYHRLPLS,En_HC,0.32,6 of 6,1 of 18
KFSQSVLLESRNKNSVA,NASTRES,QWYHRLPLS,GP_HC,1.76,6 of 6,0 of 18
KMSQSVLYESDNTNPVA,WASTRES,QQYHRLPWS,Ctrl,1.22,6 of 6,0 of 18
KSSTSGLYESDNKNSVA,DASTRES,QQYHRLPLS,Ctrl,-0.30,6 of 6,0 of 18
RSSQSCWFESYNKNSVA,WAKTRES,YQYPRLPLS,Ctrl,not detected,0 of 6,0 of 18
KSSQSALDDSRNKNSVA,WASTREQ,QQYHRLPLS,Ctrl,1.16,6 of 6,0 of 18
KSSISGLYESRNKNSVA,AASTRES,QQYHRLPLS,GP_HC,0.01,6 of 6,0 of 18
KIELDLTRYNAGGANIA,HETMRAQ,QQYSHLPLI,En_Gibbs,0.69,6 of 6,2 of 18
KLSQEVLYESRNKNSVA,EASTRES,QQYHRLPLS,Ctrl,-0.32,6 of 6,0 of 18
KVSQWWLYESRMKNAVA,NASTRCD,QQYHRLPLS,GP_Gibbs,-0.16,6 of 6,0 of 18
KVEQSVLYESRNKNSVA,NASQRES,QQYHRLPLS,GP_Gen,0.23,6 of 6,1 of 18
KSQQSVDYESRNKNNVA,HASTRED,QQYHRLPLS,GP_HC,0.15,6 of 6,1 of 18
YVSGQIDEGWNQQEAIA,HVSYKED,QQYYKLPLS,En_Gibbs,not detected,0 of 6,2 of 18
KSSQSVLYESRCKNSVA,WASTRES,QQYLRLPLS,Ctrl,not detected,0 of 6,0 of 18
KLSKSVLFESRNKNSVA,NASTRES,QQYHRLPLR,GP_HC,0.01,6 of 6,1 of 18
MVTMELRYGDEWQNPIA,NASHKEA,QQYDHLPLG,En_Gibbs,0.97,6 of 6,3 of 18
QSSDSVLYESMNKNSVA,NASTRES,QQYHRLPLS,Ctrl,0.53,6 of 6,0 of 18
TISQSAQMESHNKNSVA,DLNMRGS,QQYDRLPLS,En_HC,0.34,6 of 6,3 of 18
KQQQSMLYESRNKNSVA,NASTREE,QQYHRLPLM,GP_Gibbs,0.05,6 of 6,0 of 18
KLMEQFGHQMDHKNSIA,HVDMLAQ,QQYMHLPLI,En_Gibbs,0.76,6 of 6,3 of 18
KVSQLGLYGQRNANSVA,NASTRED,QQYHRLPLS,GP_Gibbs,-0.40,6 of 6,1 of 18
KLSQSFLYEERNKNSVA,NASTRLS,QQYHRLPLS,GP_Gen,-0.28,6 of 6,0 of 18
SISGFMKSLSAHMNSVA,DMTNREN,QQYDRLPLS,En_Gen,0.33,6 of 6,2 of 18
KSSQSGLYESRNKNSVA,GASTRES,QQYHRLTLS,GPLM_HC,0.96,6 of 6,0 of 18
KISQSVLYYSRRKNSVA,QASTRES,QQYHRLPLS,Ctrl,1.62,6 of 6,0 of 18
KSSQSMLYEERNKNSVA,WASTRES,QQYHRLPLS,Ctrl,not detected,0 of 6,0 of 18
MFALYQDSMGDAKKSIA,DRNTKAH,QQYSKLPLV,En_Gibbs,0.65,6 of 6,0 of 18
TSSQSVLYESRNKNSVA,WASTRAS,QQYHRLPLS,Ctrl,1.80,3 of 6,0 of 18
KLSQSVLYDSQNKNSVA,NASTRES,QQYHRLPLS,GP_HC,0.27,6 of 6,1 of 18
KLGQSQAMTSRNKNNVA,DLNERER,QQYHRLPLS,En_HC,-0.65,6 of 6,0 of 18
QLYQSMNFLGRVMNSIA,DASTIWD,QQYHRLPLS,En_HC,0.89,3 of 6,0 of 18
MISQLFNMGSFAINSVA,QASTRNE,QQYDRLPLI,En_Gen,1.15,6 of 6,0 of 18
KWMQSDDQESRNHNSVA,HASTRCS,QQYHRLPLS,GP_Gibbs,1.19,6 of 6,2 of 18
KAPQSMWYESRNQNSVA,QASTRSQ,QQYHRLPLQ,GP_Gibbs,0.28,6 of 6,0 of 18
KMSQSVLNESRNKNSVA,DASTRES,QQYHRLPLS,GP_HC,-0.11,6 of 6,1 of 18
KMSQEVPLESRNVNSVA,MASTRMM,QQYHRLPLS,GP_Gibbs,0.19,6 of 6,0 of 18
HLNKQAWDFNQTWNAVA,AHSMRAV,QQYYRLPLT,En_Gibbs,1.77,6 of 6,1 of 18
KLPQSVLYESRNKNAVA,EASQRES,QQYHRLPLS,GP_Gen,-0.46,6 of 6,1 of 18
KVMQSWLYESRNKNSVA,NASQRES,QQYHRLPLS,GP_Gen,0.17,6 of 6,0 of 18
KISQSVLYESRNKNSVA,DASTRLS,QQYHRLPLS,GP_Gen,-0.07,6 of 6,2 of 18
KTSQPGLYESRNKNSVA,WASTRES,QQYCRLPLS,Ctrl,not detected,0 of 6,0 of 18
KSSTHVLYESRNKNSVA,WASTRVS,QQYHRLPLS,Ctrl,not detected,0 of 6,0 of 18
KVQQSELGESRMFNSVA,NASKRES,QQYHRLPLS,GP_Gibbs,0.18,6 of 6,2 of 18
KIGMTLNTLMHQKNNVA,DLVTREA,QQYHRLPLS,En_Gen,0.20,6 of 6,3 of 18
KAQQSWPYESRNKWSVA,NASTREK,QQYHRLPLS,GP_Gibbs,0.18,6 of 6,1 of 18
HLNEQLVMDSKNQNHVA,STEQRES,QQYFRLPFT,En_Gibbs,0.00,6 of 6,0 of 18
KIGGVTNGISRSKNSVA,EQSTRED,QQYDRLPLS,En_HC,0.27,6 of 6,0 of 18
KSSWSVLYESRNKNSVA,WASTRES,QQVHRLPLS,Ctrl,not detected,0 of 6,0 of 18
KSSQSWLYESRNKNSVA,GASTRES,QQYHRLPLI,GP_HC,0.28,6 of 6,0 of 18
KLQCSEEYESRQFNSVA,EASTRNL,QQYHRLPLS,GP_Gibbs,0.39,6 of 6,1 of 18
MIAESVMYQSRNRNSVA,DNSTRED,QCYDRLPLS,En_HC,1.15,6 of 6,1 of 18
MMSQVQGQGTRHRNNVA,QTEQREP,QQYDRLPLI,En_Gen,0.55,6 of 6,0 of 18
KLSMGVDYGDRNKNQVA,HASTRES,QQYHRLPLS,GP_Gibbs,0.25,6 of 6,2 of 18

Excerpt, the first 7 entries:

CDR-L1,CDR-L2,CDR-L3,group,"log10 Kd (nM), mean",detected,empty controls
MISQSFLIGMKAQNSVA,QTSTRES,QQYDRLPLS,En_HC,0.20,6 of 6,0 of 18
ILYDSVLTLSRNKNSVA,DNSTRES,QQYDRLPLS,En_HC,2.08,4 of 6,0 of 18
TISQITSLFSQTINNVA,EVSTREQ,QQYDRLPLS,En_Gen,0.82,6 of 6,0 of 18
KLDMSTLYESRNKNSVA,WASTRES,QQYHRLPLS,GP_HC,0.25,6 of 6,2 of 18
MISNVMNTLTRQGNNVA,DLQEREN,QQYFRLPLS,En_Gen,0.90,6 of 6,0 of 18
KISQMVRVGSTKNNSIA,EEETRAD,QQYHRLPLS,En_Gen,0.63,6 of 6,1 of 18
KVMQSNWYESRWKNSVA,NASQRES,QQYHRLPLS,GP_Gibbs,0.45,6 of 6,1 of 18

Of ten entries with the parent sequence, four were seen in most replicates (averages 0.34 to 2.37), three in one and three in none, so single entries are noisy.
The authors' rule: three or more of the six replicates give a measured affinity, fewer mean a poor binder.
Background: pairings of all light chain designs with three empty control strains gave a value in 4% of cases (median 2.64, 5th percentile 1.59). Values in that range, when seen in few replicates, are hard to tell from nonspecific mating. For each scFv, signals with the empty controls are counted beside the result.